# Measurements as given in patent publication US8906943B2, “Synthetic compounds and methods to decrease nicotine self-administration” (priority 2010, dated 2014).
# Chains of the proteins cited; added tags and fusions are not shown. Lines headed by an entry give the natural chain unless they say otherwise; changes in a name come on top.
# UniProt P11509: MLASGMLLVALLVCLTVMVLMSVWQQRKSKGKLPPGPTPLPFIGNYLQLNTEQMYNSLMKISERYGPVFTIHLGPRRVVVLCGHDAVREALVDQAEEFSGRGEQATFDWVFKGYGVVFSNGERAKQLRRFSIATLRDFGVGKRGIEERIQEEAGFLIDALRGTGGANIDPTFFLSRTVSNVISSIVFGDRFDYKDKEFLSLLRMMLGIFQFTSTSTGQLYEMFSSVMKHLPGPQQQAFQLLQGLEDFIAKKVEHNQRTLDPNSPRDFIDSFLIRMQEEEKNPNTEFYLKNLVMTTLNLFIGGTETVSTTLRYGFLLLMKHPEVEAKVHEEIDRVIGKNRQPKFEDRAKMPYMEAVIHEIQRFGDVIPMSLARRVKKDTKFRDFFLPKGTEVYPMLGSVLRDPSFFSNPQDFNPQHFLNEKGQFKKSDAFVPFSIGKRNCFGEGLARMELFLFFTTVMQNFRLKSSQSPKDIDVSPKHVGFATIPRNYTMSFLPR
# Biological target: human CYP2A6 (Homo sapiens (Human), UniProt P11509)
# Experiment: Inhibition of human CYP2A6-mediated coumarin 7-hydroxylation
# Assay type: biochemical
# Details: Table 1; purified human CYP2A6, nine concentrations; read-out: hCYP2A6 IC50
# Method: Our first studies were with highly purified human CYP2A6 that provided a convenient and relatively high-throughput measure of CYP2A6 inhibition. Full dose-response IC50 values (nine concentrations) were determined (Table 1).
compound,measurement,value
NCc1ccc(-c2cccnc2)s1 [Compound 4],IC50,160 nM
